{
  "source": "paper PMC7936271",
  "about": "“Discovery and characterization of bromodomain 2–specific inhibitors of BRDT” (Proceedings of the National Academy of Sciences of the …, 2021)",
  "biological_target": "BRDT-BD1 (Homo sapiens, UniProt Q58F21)",
  "experiment": "AlphaScreen competition assay with biotinylated JQ1, BRDT-BD1",
  "assay_type": "binding",
  "conditions": "read-out: BRDT IC50, nM BD1, biotinylated JQ1 as ligand, NE: no effect at 20 µM",
  "data": [
    {"smiles": "CNC(=O)[C@@H](CC1CCN(C(=O)Cc2ccc3[nH]c(=O)cc(C)c3c2)CC1)NC(=O)c1ccc(-c2ccc(C)cc2C)cn1", "values": [
      {"measurement": "IC50", "value": 2, "unit": "nM"}
    ]}
  ]
}
